Laboratory results as given in patent publication US20030139442A1, “Vasoactive agents” (priority 2002, published 2003).

By UniProt entry, the sequences of proteins in these tests, tags left out.
UniProt Q9UKP6, whole entry: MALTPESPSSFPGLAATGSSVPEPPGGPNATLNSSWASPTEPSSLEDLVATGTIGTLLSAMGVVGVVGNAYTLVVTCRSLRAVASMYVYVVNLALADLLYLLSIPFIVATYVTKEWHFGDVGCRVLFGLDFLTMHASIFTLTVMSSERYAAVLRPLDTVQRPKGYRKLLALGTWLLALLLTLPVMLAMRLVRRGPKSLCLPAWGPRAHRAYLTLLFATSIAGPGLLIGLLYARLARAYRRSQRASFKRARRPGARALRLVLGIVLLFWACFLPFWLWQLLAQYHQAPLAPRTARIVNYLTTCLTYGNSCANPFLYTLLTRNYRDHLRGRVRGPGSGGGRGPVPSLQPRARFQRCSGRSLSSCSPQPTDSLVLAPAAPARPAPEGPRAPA

Target: human GPR14-expressing CHO cells (Homo sapiens, UniProt Q9UKP6)
Assay: Change in intracellular calcium concentration in human GPR14-expressing CHO cells (FLIPR), antagonist activity assay
Type: cell-based
Conditions: Fluo3, 10 μl of 10 nM urotensin II added
Protocol: Change in Calcium Concentration in Human GPR14-Expressing CHO Cell Caused by Test Compound
GPR14-expressing CHO cells were inoculated on a 96-well plate at 1×10^4 cell/well, cultured for 48 hours, and then washed with 0.1 ml of HBSS containing 20 mM HEPES(pH7.4), 1% FCS and 1% penicillin-streptomycin (hereinafter referred to as “wash buffer”). Next, 100 μl of another wash buffer containing 4 μM Fluo3, 0.04% pluronic acid and 2.5 mM probenicid (hereinafter referred to as “reaction buffer”) was added thereto for reaction at 37° C. for 1 hour. The reaction buffer was then removed and the plate was washed three times with 0.2ml of wash buffer. Then, 90 μl of wash buffer and 10 μl of a solution of test compound in dimethylsulfoxide diluted 10 times (by volume) in membrane diluting buffer were added for agonist activity assay, while, for antagonist activity assay, furthermore 10 μl of 10 nM urotensin II was additionally added to determine change in intracellular calcium concentration in FLIPR (Japan Molecular Device). Both of test compounds 1 and 2 inhibited urotensin II-induced increase in intracellular calcium concentration.

Nc1c2c(nc3ccc(Br)cc13)N(Cc1ccccc1)CC2
Effect on urotensin II-induced increase in intracellular calcium concentration: inhibited
